The source of these data is patent US20220411487A1 (Regeneron, published 2022).

Amino acid sequences for entries named in this document (tags omitted). A change or cut given only in a name is not applied to a line headed by its entry.
UniProt Q8IU80: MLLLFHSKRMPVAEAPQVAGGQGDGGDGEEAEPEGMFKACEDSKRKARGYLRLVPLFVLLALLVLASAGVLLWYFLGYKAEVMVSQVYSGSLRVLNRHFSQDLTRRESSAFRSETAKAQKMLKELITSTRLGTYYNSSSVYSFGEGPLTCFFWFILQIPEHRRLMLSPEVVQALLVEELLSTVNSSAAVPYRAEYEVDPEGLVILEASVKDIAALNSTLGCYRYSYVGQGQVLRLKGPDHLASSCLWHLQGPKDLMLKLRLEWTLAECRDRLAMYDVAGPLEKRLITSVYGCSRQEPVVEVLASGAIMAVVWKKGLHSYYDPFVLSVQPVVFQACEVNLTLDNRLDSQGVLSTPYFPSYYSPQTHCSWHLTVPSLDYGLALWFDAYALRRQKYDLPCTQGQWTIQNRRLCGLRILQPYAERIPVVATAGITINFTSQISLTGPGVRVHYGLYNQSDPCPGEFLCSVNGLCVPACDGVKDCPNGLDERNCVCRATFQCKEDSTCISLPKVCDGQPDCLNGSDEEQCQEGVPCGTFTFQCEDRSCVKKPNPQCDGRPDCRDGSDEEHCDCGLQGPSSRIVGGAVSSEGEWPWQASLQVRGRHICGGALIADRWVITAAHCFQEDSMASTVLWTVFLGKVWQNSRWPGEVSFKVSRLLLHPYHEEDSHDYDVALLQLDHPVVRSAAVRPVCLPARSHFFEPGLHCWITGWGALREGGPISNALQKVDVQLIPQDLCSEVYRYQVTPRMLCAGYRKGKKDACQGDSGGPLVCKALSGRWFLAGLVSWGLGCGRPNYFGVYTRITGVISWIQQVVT

In assay [1] the target is T1, full length cynomolgous monkey TMPRSS6 on HEK293 cells (HEK293/mfTMPRSS6) (cynomolgous monkey/Macaca fascicularis, UniProt Q8IU80 10-811 (human entry)).
T1 chain: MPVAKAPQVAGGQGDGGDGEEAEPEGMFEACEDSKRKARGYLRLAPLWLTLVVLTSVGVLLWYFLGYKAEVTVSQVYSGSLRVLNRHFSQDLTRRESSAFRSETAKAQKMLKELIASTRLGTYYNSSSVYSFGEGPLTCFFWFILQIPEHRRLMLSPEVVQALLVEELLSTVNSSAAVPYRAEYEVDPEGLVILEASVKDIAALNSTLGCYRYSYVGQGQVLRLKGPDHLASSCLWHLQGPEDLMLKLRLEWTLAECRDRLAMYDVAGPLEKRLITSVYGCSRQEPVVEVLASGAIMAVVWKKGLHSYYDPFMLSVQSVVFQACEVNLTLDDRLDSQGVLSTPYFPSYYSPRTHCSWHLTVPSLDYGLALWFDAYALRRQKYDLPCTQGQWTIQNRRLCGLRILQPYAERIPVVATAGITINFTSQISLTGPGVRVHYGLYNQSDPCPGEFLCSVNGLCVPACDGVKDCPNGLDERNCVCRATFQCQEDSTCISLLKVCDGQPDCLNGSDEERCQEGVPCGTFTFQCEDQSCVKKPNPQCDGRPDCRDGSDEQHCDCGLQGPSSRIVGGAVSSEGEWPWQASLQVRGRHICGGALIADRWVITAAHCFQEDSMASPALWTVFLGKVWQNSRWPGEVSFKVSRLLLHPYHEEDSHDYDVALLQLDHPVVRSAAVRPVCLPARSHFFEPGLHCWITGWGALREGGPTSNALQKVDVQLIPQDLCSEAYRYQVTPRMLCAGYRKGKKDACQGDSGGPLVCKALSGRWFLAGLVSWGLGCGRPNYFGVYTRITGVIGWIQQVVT
The experiment in a line: cell-based or functional assay.

The target in assay [2] is T2, hTMPRSS6_S762A-MMH (human, UniProt Q8IU80).
T2 construct: also called REGN5330; human TMPRSS6_S762A-MMH
The experiment in a line: SPR, mAb captured via anti-hFc, 37 C. The protocol: (§1) The equilibrium dissociation constant (KD) for TMPRSS6 binding to different TMPRSS6 monoclonal antibodies (mAbs) was determined using a real-time surface plasmon resonance biosensor using a Biacore 4000 instrument. All binding studies were performed in 10 mM HEPES, 150 mM NaCl, 3 mM EDTA, and 0.05% v/v Surfactant Tween-20, pH 7.4 (HBS-ET) running buffer at 25° C. and 37° C. The Biacore CM5 sensor chip surface was first derivatized by amine coupling with a human Fc specific mouse mAb to capture different TMPRSS6 mAbs. […] Different concentrations (100 nM to 3.7 nM, 3-fold serial dilution) of the TMPRSS6 reagent proteins prepared in HBS-EP running buffer were injected over the TMPRSS6 mAb captured surface for 150 seconds at a flow rate of 30 μL/min and their dissociation in HBS-ET running buffer was monitored for 10 minutes. At the end of each cycle, the TMPRSS6 mAb captured surface was regenerated using a 12 second injection of 20 mM phosphoric acid.
(§2) The association rate (kₐ) and dissociation rate (kd) were determined by fitting the real-time binding sensorgrams to a 1:1 binding model with mass transport limitation using Scrubber 2.0 (BioLogic Software) curve-fitting software. Binding dissociation equilibrium constant (KD) and dissociative half-life (t½) were calculated from the kinetic rates as: […]
For orientation: SPR reads the build-up and loss of mass on a sensor chip optically.

The target of assay [3] is T3, mfTMPRSS6_S751A-MMH (Macaca fascicularis, UniProt Q8IU80 77-811 (human entry)).
T3 construct: also called REGN5977; Macaca fascicularis TMPRSS6 extracellular domain with a S751A mutation and a C-terminal myc-myc-hexahistidine tag
T3 chain: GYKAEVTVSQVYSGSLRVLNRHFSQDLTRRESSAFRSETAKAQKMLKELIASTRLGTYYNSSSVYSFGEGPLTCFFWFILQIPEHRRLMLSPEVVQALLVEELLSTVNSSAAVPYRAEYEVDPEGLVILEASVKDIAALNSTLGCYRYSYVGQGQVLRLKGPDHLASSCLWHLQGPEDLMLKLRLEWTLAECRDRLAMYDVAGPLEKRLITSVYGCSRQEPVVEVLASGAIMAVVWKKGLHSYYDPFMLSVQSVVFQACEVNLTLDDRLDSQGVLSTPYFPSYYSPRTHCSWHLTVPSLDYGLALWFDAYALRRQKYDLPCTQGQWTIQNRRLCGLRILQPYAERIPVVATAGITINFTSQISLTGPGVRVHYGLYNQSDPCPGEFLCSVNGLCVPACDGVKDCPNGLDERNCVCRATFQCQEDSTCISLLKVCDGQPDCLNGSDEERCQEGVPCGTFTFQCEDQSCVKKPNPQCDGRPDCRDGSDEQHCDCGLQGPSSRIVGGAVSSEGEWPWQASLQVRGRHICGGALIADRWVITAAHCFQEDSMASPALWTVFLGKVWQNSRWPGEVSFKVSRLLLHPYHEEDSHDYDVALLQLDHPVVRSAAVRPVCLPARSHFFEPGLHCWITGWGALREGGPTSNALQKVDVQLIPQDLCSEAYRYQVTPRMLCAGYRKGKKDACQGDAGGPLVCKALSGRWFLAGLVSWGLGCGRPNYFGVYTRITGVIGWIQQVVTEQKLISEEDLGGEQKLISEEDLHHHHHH
The experiment in a line: SPR, mAb captured via anti-hFc, 37 C. On the procedure:
as §1, §2

B1: REGN7973 (antibody, human IgG4 S228P, kappa, V domains shown)
VH: EVQLVESGGGLVKPGGSLRLSCAASGFTFSNAWMSWVRQAPGKGLEWVGRIKSKTDSGTTDYAAPVKGRFTISRDDSKNTLYLQMNSLKTEDTAVYYCTTVDNDFWSGYYNWFDPWGQGTLVTVSS
VL: [gap - about 100 residues]
notes: fully human; human IgG4 Fc with hinge S108P; also called mAb37777
As usually defined, the Kd is the equilibrium constant for the complex coming apart. Broadly, the koff is the first-order rate constant of dissociation. One may read the kon as the rate constant with which the complex forms. The term t½ denotes the time in which the quantity being followed falls by half. As to B1, in assay [1], the “% inhibition, HEK293 bioassay, 30 min pre-incubation 25 C” value amounted to 85% and the “IC50, HEK293 bioassay, 30 min pre-incubation 25 C” value turned out to be 25 nM. Further, in assay [2], the “100 nM Ag Bound” value was found to be 164 RU, binding was put at a Kd of 21.2 nM, the koff was found to be 0.00126 s⁻¹ and the kon came out at 59500 M⁻¹ s⁻¹. This molecule also gave a t½ in assay [2] of 9 min. Besides, in assay [3], the “100 nM Ag Bound” value came out at 145 RU, the Kd was 25.7 nM, the koff stood at 0.0034 s⁻¹ and the kon is 132000 M⁻¹ s⁻¹. For the same molecule, in assay [3], the t½ turned out to be 3.4 min.
